Our source for the enhancement values is PubChem BioAssay AID493056 (National Center for Advancing Translational Sciences (NCATS), 2011).

Amino acid sequences for entries named in this document (tags omitted).
UniProt P34981, whole entry: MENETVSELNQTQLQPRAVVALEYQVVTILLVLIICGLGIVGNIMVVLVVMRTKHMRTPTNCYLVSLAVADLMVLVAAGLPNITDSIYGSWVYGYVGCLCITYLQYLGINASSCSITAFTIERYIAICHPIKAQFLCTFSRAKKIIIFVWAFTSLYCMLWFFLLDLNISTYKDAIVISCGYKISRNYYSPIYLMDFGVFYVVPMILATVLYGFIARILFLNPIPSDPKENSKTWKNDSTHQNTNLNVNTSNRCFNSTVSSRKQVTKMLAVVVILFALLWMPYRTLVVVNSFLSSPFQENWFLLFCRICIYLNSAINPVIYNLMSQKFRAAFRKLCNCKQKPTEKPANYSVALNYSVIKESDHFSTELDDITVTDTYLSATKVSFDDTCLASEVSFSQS

The list shows a part of the results, in another mix than the full data. Activity calls are given as the source filed them. Rule as the data show it: active = enhancement above about 30%; inactive = the rest.

This experiment concerns the target Thyrotropin-releasing hormone receptor (Homo sapiens) (UniProt P34981). The experiment can be described thus: qHTS for Small Molecule Agonists and Allosteric Enhancers of Human TRH Receptor: Primary Screen for Enhancers. Also: 0% is about no effect. The conditions noted are these: TRHR cells, fluo-8 calcium fluorescence, EC20 TRH enhancement; at 2 µM; stronger effect = higher value. The text has this:
NIH Chemical Genomics Center [NCGC] NIH Molecular Libraries Probe Centers Network [MLPCN] MLPCN Grant: MH089816-01 Assay Submitter (PI): Marvin Gershengorn This project aims to identify small drug-like molecules that activate (agonists) the thyrotropin releasing hormone (TRH) receptor (TRHR) or enhance its TRH-stimulated activity (allosteric enhancers). TRHR, a drug-accessible cell surface receptor expressed in specific brain regions, and its ligand TRH have been implicated in several central nervous system disorders, including depression and anxiety. Small molecule TRHR agonists or allosteric enhancers that are metabolically stable and able to cross the blood-brain barrier might serve as probes to elucidate the roles of brain TRH receptors in animal models, and might be valuable as lead compounds for the development of drugs to treat patients with central nervous system disorders. Upon TRHR-Gq activation in TRHR cells, intracellular calcium is released from stores in the endoplasmic reticulum. […] This primary screen measures compound-induced enhancement of an EC20 stimulation of the receptor by its native ligand.
For the HTS assay freshly prepared cells are plated at a density of 2000/well in 3 ul of complete DMEM medium containing 10% serum in 1536-well plates and cultured over night at 37 C in a humidified incubator with 5% CO2. The next day, 2 ul of a no wash calcium dye (ABD Bioquest) was added to the cells and plates were incubated at room temperature for 1 hour. For the assay, assay plates were loaded into the FDSS kinetic plate reader. A 10 cycle (1 second/cycle) baseline measurement is taken and then the FDSS online 1536 pintool delivers 23 nl of compound library (as well as TRH controls) to the plate. The plate is measured for kinetically at 1 cycle/sec for 180 seconds and is considered to be the agonist portion of the assay (eg, compounds which activate a positive calcium response during this portion are flagged as potential agonists). Following the 180 second read, 1 ul of either an EC20 (positive modulation assay) is delivered by an onboard pipette head. Measurements are taken kinetically for an additional 180 seconds. TRHR FDSS Screening Protocol 1. Reagent, 3 uL 2000 cells/well 1536 TC treated Black plate in media containing 10% FCS 2. Time, 18 hours, 33.5C 5% CO2 (cells grown at 37C) 3. Reagent, 2 uL ABD fluo-8 Ca dye 4. Time, 30 min-1.5hrs hours, Room temp (6 plates/batch) 5. Detector, EX 480/EM 530C, FDSS 10 cycles baseline (1sec/cycle) 6. Compound, 23 nL of stock solution from library 7. Detector, EX 480/EM 530C, FDSS 230 cycles (1sec/cycle) Agonist mode 8. Compound, 1 ul EC20 of TRH made up in HEPES HBSS, 10 nM final 9. Detector, EX 480/EM 530C, FDSS 100 cycles (1sec/cycle) Potentiator mode
For orientation: In qHTS, concentration-response curves come from the screen itself.
`COc1ccccc1OP(C)(=O)Nc1cccc(Br)c1` (centres undefined): the enhancement was inactive: -0.591%.

In the case of `CCOC(=O)c1ccc(NP(C)(=O)Oc2cc(C)cc(C)c2)cc1` (centres undefined), the enhancement was inactive: 3.67%.

As for `Cc1cc(C)cc(OP(C)(=O)Nc2ccc(C)cc2C)c1` (centres undefined), the enhancement is inactive: -1.66%.

With `Cc1ccc(C)c(NP(C)(=O)Oc2ccccc2)c1` (centres undefined), the enhancement was inactive: 8.45%.

`Cc1cc(C)cc(OP(C)(=O)Nc2ccccn2)c1` (centres undefined): the enhancement was inactive: 2.96%.

With `CP(=O)(Nc1cccc(Br)c1)Oc1ccccc1` (centres undefined), the enhancement is inactive: 1.62%.

For `CC1=NCCc2c1[nH]c1ccccc21.O=[N+]([O-])c1cc([N+](=O)[O-])c(O)c([N+](=O)[O-])c1`, the enhancement was inactive: 1.81%.

`CC1=C2N=C(C=C3N=C(C(C)=C4[N-][C@@](C)([C@@H]5N=C1[C@](C)(CCC(=O)NC[C@@H](C)OP(=O)([O-])O[C@H]1[C@@H](O)[C@@H](n6cnc7cc(C)c(C)cc76)O[C@@H]1CO)[C@H]5CC(N)=O)[C@@](C)(CC(N)=O)[C@@H]4CCC(N)=O)[C@@](C)(CC(N)=O)[C@@H]3CCC(N)=O)C(C)(C)[C@@H]2CCC(N)=O.[C-]#N.[Co+3]`: the enhancement was inactive: -0.0615%.

With `O=[N+]([O-])c1cc([N+](=O)[O-])c(Nc2nnnn2CCO)c([N+](=O)[O-])c1`, the enhancement was inactive: 3.04%.

On to `COc1ccccc1OP(C)(=O)Nc1c(C)cccc1C` (centres undefined), for which the enhancement was inactive: -8.75%.

As for `CN1CCCCC1COC(=O)C1(O)c2ccccc2CCc2ccccc21` (centres undefined), the enhancement is inactive: 11.4%.

As for `CCCOc1ccc(NP(C)(=O)Oc2ccc(Cl)cc2)cc1` (centres undefined), the enhancement is inactive: -1.29%.

Consider `CP(=O)(Nc1ccc(SC(F)(F)F)cc1)Oc1ccccc1` (centres undefined), for which the enhancement was inactive: 3%.

As for `O=[N+]([O-])c1cc([N+](=O)[O-])c(-n2nnc3ccccc32)c([N+](=O)[O-])c1`, the enhancement is inactive: -1.55%.

As for `Cc1nc2ccc3ccccc3c2s1.O=[N+]([O-])c1cc([N+](=O)[O-])c(O)c([N+](=O)[O-])c1`, the enhancement is inactive: 2.66%.

For `Cc1cccc(C)c1OP(C)(=O)Nc1ccc(SC(F)(F)F)cc1` (centres undefined), the enhancement is inactive: -7.65%.

In the case of `CP(=O)(Nc1ccc(SC(F)(F)F)cc1)Oc1ccc(Cl)cc1` (centres undefined), the enhancement is inactive: 1.76%.

Turning to `CP(=O)(Oc1ccccc1)OC(c1ccccc1)C(F)(F)F` (centres undefined), the enhancement was inactive: 1.35%.

Regarding `CP(=O)(NC(=O)Nc1ccccc1)Oc1ccccc1` (centres undefined), the enhancement was inactive: -4.51%.

Take `CCc1ccc(OP(C)(=O)N2CCN(c3ccc([N+](=O)[O-])cc3)CC2)cc1` (centres undefined): the enhancement is inactive: 3.47%.

Regarding `Cc1cc(C)cc(OP(C)(=O)Nc2ccc(SC(F)(F)F)cc2)c1` (centres undefined), the enhancement is inactive: 18.1%.

For `CCOC(=O)c1ccc(NP(C)(=O)Oc2ccc(OC)cc2)cc1` (centres undefined), the enhancement was inactive: -0.314%.

Regarding `CCOP(C)(=S)SCC(=O)NC(C)C(=O)O` (centres undefined), the enhancement is inactive: 4.24%.

As for `CP(=O)(Nc1ccccn1)Oc1ccc(Cl)cc1` (centres undefined), the enhancement is inactive: 5.1%.

Regarding `CP(=S)(Nn1cnnc1)Oc1ccccc1` (centres undefined), the enhancement is inactive: -2.93%.

For the molecule `CP(=O)(Nc1ccccc1Br)Oc1ccccc1` (centres undefined), the enhancement is inactive: -1.13%.

On to `COc1ccccc1OP(C)(=O)Nc1ccccc1` (centres undefined), for which the enhancement was inactive: 1.47%.

With `O=[N+]([O-])c1cc([N+](=O)[O-])c(Nc2cccnc2)c([N+](=O)[O-])c1`, the enhancement was inactive: -4.81%.

Take `O=[N+]([O-])c1ccc2c(c1)C=Nc1ccccc1O2`: the enhancement is inactive: -1.78%.

Regarding `CC(C)(C)c1ccc(OP(C)(=O)Nc2ccc(SC(F)(F)F)cc2)cc1` (centres undefined), the enhancement was inactive: -0.475%.

On to `Cc1cccc(C)c1OP(C)(N)=O` (centres undefined), for which the enhancement was inactive: -3.93%.

With `COc1ccccc1OP(C)(=O)Nc1ccc(C)cc1` (centres undefined), the enhancement was inactive: 0.866%.

Take `Cc1ccc(NP(C)(=O)Oc2ccccc2)c(C)c1` (centres undefined): the enhancement was inactive: 1.71%.

With `CCOC(=O)c1ccc(NP(C)(=O)Oc2ccccc2)cc1` (centres undefined), the enhancement is inactive: -1.87%.

For the molecule `Cc1cc(C)cc(OP(C)(N)=O)c1` (centres undefined), the enhancement was inactive: 1.23%.

`COc1ccccc1OP(C)(=O)Nc1cc(Cl)ccc1C` (centres undefined): the enhancement was inactive: 0.283%.

With `COc1ccc(OP(C)(=O)Nc2cccc(F)c2)cc1` (centres undefined), the enhancement was inactive: 2.12%.

For `CCN(CC)CCCOC(=O)C(O)(c1ccccc1)c1ccccc1`, the enhancement is inactive: -4.01%.

In the case of `COc1ccccc1OP(C)(=O)Nc1ccc(Br)cc1` (centres undefined), the enhancement was inactive: -2.63%.

For the molecule `COc1ccc(OP(C)(=O)Nc2ccccn2)cc1` (centres undefined), the enhancement was inactive: 2.92%.

Turning to `CN(C)CCOC(=O)C(O)(c1ccccc1)C1CCCC1` (centres undefined), the enhancement was inactive: -12.6%.

For `Cc1c(NP(C)(=O)Oc2ccc(C(C)C)cc2)c(=O)n(-c2ccccc2)n1C` (centres undefined), the enhancement was inactive: 5.79%.

Consider `O=[N+]([O-])c1cc([N+](=O)[O-])c(Nc2ccccn2)c([N+](=O)[O-])c1`, for which the enhancement was inactive: 9.68%.

As for `CP(=O)(Nc1ccccn1)Oc1ccccc1` (centres undefined), the enhancement is inactive: 10.3%.

In the case of `COc1ccccc1OP(C)(=O)Nc1ccc(C)cc1C` (centres undefined), the enhancement was inactive: -3.48%.

With `CCc1ccc(OP(C)(=O)O)cc1`, the enhancement is inactive: -7.79%.

On to `Cc1cc(C)cc(OP(C)(=O)Nc2cccc(C(F)(F)F)c2)c1` (centres undefined), for which the enhancement is inactive: 1.75%.

As to `COc1ccccc1OP(C)(=O)Nc1ccc(C)c(C)c1` (centres undefined), the enhancement was inactive: 4.42%.

As for `COc1ccc(OP(C)(=O)Nc2ccccc2Br)cc1` (centres undefined), the enhancement is inactive: -3.88%.

For the molecule `Cc1nc2ccc3ccccc3c2o1.O=[N+]([O-])c1cc([N+](=O)[O-])c(O)c([N+](=O)[O-])c1`, the enhancement is inactive: 0.209%.

Take `CP(=O)(Nc1ccc(Cl)cc1Cl)Oc1ccccc1` (centres undefined): the enhancement was inactive: -0.773%.

As to `CP(=O)(OCCOc1ccccc1)OCCOc1ccccc1`, the enhancement was inactive: 1.56%.

`CCOC(=O)c1ccc(NP(C)(=O)Oc2ccc(Cl)cc2)cc1` (centres undefined): the enhancement is inactive: -3.39%.

`CP(=O)(OC12CC3CC(CC(C3)C1)C2)OC12CC3CC(CC(C3)C1)C2`: the enhancement was inactive: 7.44%.

Consider `CCN(CC)CC(O)COC(=O)C(O)(c1ccccc1)C1CCCCC1` (centres undefined), for which the enhancement was inactive: 0.798%.

`COc1ccc(OP(C)(=O)Nc2ccc(Br)cc2)cc1` (centres undefined): the enhancement is inactive: -2.29%.

For the molecule `COc1ccccc1OP(C)(=O)Nc1c(C)n(C)n(-c2ccccc2)c1=O` (centres undefined), the enhancement was inactive: 1.29%.

Turning to `O=C(OCCCN1CCCC1)C(O)(c1ccccc1)C1CCCCC1` (centres undefined), the enhancement was inactive: 6.51%.

Regarding `CP(=O)(Oc1ccccc1)N1CCOC1=O` (centres undefined), the enhancement is inactive: 1.17%.
